Reference: PubChem BioAssay (NCI)
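Test compounds were applied to cells in 96-well plates for 48 hours at 5 doses. GI50 is the concentration that inhibits growth by half. TGI denotes the concentration required for complete inhibition of growth.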

Legend:
Test in all cases: NCI anticancer screen, dose series, 48 h
DLD-1 colon = system: DLD-1 colon
M14 melanoma = system: M14 melanoma
SN12C renal = system: SN12C renal
U251 CNS = system: U251 CNS
CAKI-1 renal = system: CAKI-1 renal
SF-295 CNS = system: SF-295 CNS
HCT-116 colon = system: HCT-116 colon
OVCAR-4 ovarian = system: OVCAR-4 ovarian
HCT-15 colon = system: HCT-15 colon
HOP-62 NSCLC = system: HOP-62 NSCLC
HCC-2998 colon = system: HCC-2998 colon
UO-31 renal = system: UO-31 renal
SK-OV-3 ovarian = system: SK-OV-3 ovarian
HT29 colon = system: HT29 colon
IGROV1 ovarian = system: IGROV1 ovarian
MALME-3M melanoma = system: MALME-3M melanoma
KM20L2 colon = system: KM20L2 colon
UACC-257 melanoma = system: UACC-257 melanoma
LOX IMVI melanoma = system: LOX IMVI melanoma
RXF 393 renal = system: RXF 393 renal
SNB-19 CNS = system: SNB-19 CNS
MDA-N = system: MDA-N
RXF-631 renal = system: RXF-631 renal
CCRF-CEM leukemia = system: CCRF-CEM leukemia
SF-268 CNS = system: SF-268 CNS
NCI-H460 lung = system: NCI-H460 lung
PC-3 prostate = system: PC-3 prostate
786-0 renal = system: 786-0 renal
NCI-H226 lung = system: NCI-H226 lung
MDA-MB-435 = system: MDA-MB-435
UACC-62 melanoma = system: UACC-62 melanoma
KM12 colon = system: KM12 colon
SF-539 CNS = system: SF-539 CNS
A549 NSCLC = system: A549 NSCLC
RPMI-8226 leukemia = system: RPMI-8226 leukemia
NCI-H23 lung = system: NCI-H23 lung
NCI-H322M lung = system: NCI-H322M lung
HS 578T breast = system: HS 578T breast
BT-549 breast = system: BT-549 breast
OVCAR-5 ovarian = system: OVCAR-5 ovarian
COLO 205 colon = system: COLO 205 colon
MDA-MB-231 breast = system: MDA-MB-231 breast
K-562 leukemia = system: K-562 leukemia
SW-620 colon = system: SW-620 colon
HOP-18 NSCLC = system: HOP-18 NSCLC
SK-MEL-28 melanoma = system: SK-MEL-28 melanoma
M19-MEL melanoma = system: M19-MEL melanoma
SK-MEL-2 melanoma = system: SK-MEL-2 melanoma
HOP-92 NSCLC = system: HOP-92 NSCLC
A498 renal = system: A498 renal
DMS 273 small cell lung = system: DMS 273 small cell lung
MCF7 breast = system: MCF7 breast
EKVX NSCLC = system: EKVX NSCLC
TK-10 renal = system: TK-10 renal
HL-60(TB) leukemia = system: HL-60(TB) leukemia
OVCAR-8 ovarian = system: OVCAR-8 ovarian
T-47D breast = system: T-47D breast
SK-MEL-5 melanoma = system: SK-MEL-5 melanoma
LXFL 529 NSCLC = system: LXFL 529 NSCLC
OVCAR-3 ovarian = system: OVCAR-3 ovarian
SR leukemia = system: SR leukemia
SNB-75 CNS = system: SNB-75 CNS
NCI/ADR-RES ovarian = system: NCI/ADR-RES ovarian
DMS 114 small cell lung = system: DMS 114 small cell lung
ACHN renal = system: ACHN renal
NCI-H522 lung = system: NCI-H522 lung
MOLT-4 leukemia = system: MOLT-4 leukemia

Compound `O=[As](O)(O)CC(O)CO` (centres undefined) has a GI50 (DLD-1 colon) greater than 100 µM, a TGI (DLD-1 colon) greater than 100 µM and a GI50 (M14 melanoma) greater than 100 µM. For the same compound, the TGI (M14 melanoma) was greater than 100 µM, the GI50 (SN12C renal) was greater than 100 µM and the TGI (SN12C renal) was greater than 100 µM. It also gave a GI50 (U251 CNS) greater than 100 µM, a TGI (U251 CNS) greater than 100 µM and a GI50 (CAKI-1 renal) greater than 100 µM. It also gave a TGI (CAKI-1 renal) greater than 100 µM, a GI50 (SF-295 CNS) greater than 100 µM and a TGI (SF-295 CNS) greater than 100 µM. It also gave a GI50 (HCT-116 colon) greater than 100 µM, a TGI (HCT-116 colon) greater than 100 µM and a GI50 (OVCAR-4 ovarian) greater than 100 µM. It also gave a TGI (OVCAR-4 ovarian) greater than 100 µM, a GI50 (HCT-15 colon) greater than 100 µM and a TGI (HCT-15 colon) greater than 100 µM. The GI50 (HOP-62 NSCLC) was greater than 100 µM, the TGI (HOP-62 NSCLC) was greater than 100 µM and the GI50 (HCC-2998 colon) was greater than 100 µM. For the same compound, the TGI (HCC-2998 colon) was greater than 100 µM, the GI50 (UO-31 renal) was greater than 100 µM and the TGI (UO-31 renal) was greater than 100 µM. For the same compound, the GI50 (SK-OV-3 ovarian) was greater than 100 µM, the TGI (SK-OV-3 ovarian) was greater than 100 µM and the GI50 (HT29 colon) was greater than 100 µM. The TGI (HT29 colon) was greater than 100 µM, the GI50 (IGROV1 ovarian) was greater than 100 µM and the TGI (IGROV1 ovarian) was greater than 100 µM. It also gave a GI50 (MALME-3M melanoma) greater than 100 µM, a TGI (MALME-3M melanoma) greater than 100 µM and a GI50 (KM20L2 colon) greater than 100 µM. The TGI (KM20L2 colon) was greater than 100 µM, the GI50 (UACC-257 melanoma) was greater than 100 µM and the TGI (UACC-257 melanoma) was greater than 100 µM. It also gave a GI50 (LOX IMVI melanoma) greater than 100 µM, a TGI (LOX IMVI melanoma) greater than 100 µM and a GI50 (RXF 393 renal) greater than 100 µM. For the same compound, the TGI (RXF 393 renal) was greater than 100 µM, the GI50 (SNB-19 CNS) was greater than 100 µM and the TGI (SNB-19 CNS) was greater than 100 µM. It also gave a GI50 (MDA-N) greater than 100 µM, a TGI (MDA-N) greater than 100 µM and a GI50 (RXF-631 renal) greater than 100 µM. The TGI (RXF-631 renal) was greater than 100 µM, the GI50 (CCRF-CEM leukemia) was greater than 100 µM and the TGI (CCRF-CEM leukemia) was greater than 100 µM. It also gave a GI50 (SF-268 CNS) greater than 100 µM, a TGI (SF-268 CNS) greater than 100 µM and a GI50 (NCI-H460 lung) greater than 100 µM. The TGI (NCI-H460 lung) was greater than 100 µM, the GI50 (PC-3 prostate) was greater than 100 µM and the TGI (PC-3 prostate) was greater than 100 µM. For the same compound, the GI50 (786-0 renal) was greater than 100 µM, the TGI (786-0 renal) was greater than 100 µM and the GI50 (NCI-H226 lung) was greater than 100 µM. For the same compound, the TGI (NCI-H226 lung) was greater than 100 µM, the GI50 (MDA-MB-435) was greater than 100 µM and the TGI (MDA-MB-435) was greater than 100 µM. The GI50 (UACC-62 melanoma) was greater than 100 µM, the TGI (UACC-62 melanoma) was greater than 100 µM and the GI50 (KM12 colon) was greater than 100 µM. It also gave a TGI (KM12 colon) greater than 100 µM, a GI50 (SF-539 CNS) greater than 100 µM and a TGI (SF-539 CNS) greater than 100 µM. For the same compound, the GI50 (A549 NSCLC) was greater than 100 µM, the TGI (A549 NSCLC) was greater than 100 µM and the GI50 (RPMI-8226 leukemia) was greater than 100 µM. It also gave a TGI (RPMI-8226 leukemia) greater than 100 µM, a GI50 (NCI-H23 lung) greater than 100 µM and a TGI (NCI-H23 lung) greater than 100 µM. It also gave a GI50 (NCI-H322M lung) greater than 100 µM, a TGI (NCI-H322M lung) greater than 100 µM and a GI50 (HS 578T breast) greater than 100 µM. For the same compound, the TGI (HS 578T breast) was greater than 100 µM, the GI50 (BT-549 breast) was greater than 100 µM and the TGI (BT-549 breast) was greater than 100 µM. For the same compound, the GI50 (OVCAR-5 ovarian) was greater than 100 µM, the TGI (OVCAR-5 ovarian) was greater than 100 µM and the GI50 (COLO 205 colon) was greater than 100 µM. For the same compound, the TGI (COLO 205 colon) was greater than 100 µM, the GI50 (MDA-MB-231 breast) was greater than 100 µM and the TGI (MDA-MB-231 breast) was greater than 100 µM. It also gave a GI50 (K-562 leukemia) greater than 100 µM, a TGI (K-562 leukemia) greater than 100 µM and a GI50 (SW-620 colon) greater than 100 µM. The TGI (SW-620 colon) was greater than 100 µM, the GI50 (HOP-18 NSCLC) was greater than 100 µM and the TGI (HOP-18 NSCLC) was greater than 100 µM. It also gave a GI50 (SK-MEL-28 melanoma) greater than 100 µM, a TGI (SK-MEL-28 melanoma) greater than 100 µM and a GI50 (M19-MEL melanoma) greater than 100 µM. It also gave a TGI (M19-MEL melanoma) greater than 100 µM, a GI50 (SK-MEL-2 melanoma) greater than 100 µM and a TGI (SK-MEL-2 melanoma) greater than 100 µM. For the same compound, the GI50 (HOP-92 NSCLC) was greater than 100 µM, the TGI (HOP-92 NSCLC) was greater than 100 µM and the GI50 (A498 renal) was greater than 100 µM. For the same compound, the TGI (A498 renal) was greater than 100 µM, the GI50 (DMS 273 small cell lung) was greater than 100 µM and the TGI (DMS 273 small cell lung) was greater than 100 µM. The GI50 (MCF7 breast) was greater than 100 µM, the TGI (MCF7 breast) was greater than 100 µM and the GI50 (EKVX NSCLC) was greater than 100 µM. The TGI (EKVX NSCLC) was greater than 100 µM, the GI50 (TK-10 renal) was greater than 100 µM and the TGI (TK-10 renal) was greater than 100 µM. It also gave a GI50 (HL-60(TB) leukemia) greater than 100 µM, a TGI (HL-60(TB) leukemia) greater than 100 µM and a GI50 (OVCAR-8 ovarian) greater than 100 µM. It also gave a TGI (OVCAR-8 ovarian) greater than 100 µM, a GI50 (T-47D breast) greater than 100 µM and a TGI (T-47D breast) greater than 100 µM. For the same compound, the GI50 (SK-MEL-5 melanoma) was greater than 100 µM, the TGI (SK-MEL-5 melanoma) was greater than 100 µM and the GI50 (LXFL 529 NSCLC) was greater than 100 µM. It also gave a TGI (LXFL 529 NSCLC) greater than 100 µM, a GI50 (OVCAR-3 ovarian) greater than 100 µM and a TGI (OVCAR-3 ovarian) greater than 100 µM. It also gave a GI50 (SR leukemia) greater than 100 µM, a TGI (SR leukemia) greater than 100 µM and a GI50 (SNB-75 CNS) greater than 100 µM. For the same compound, the TGI (SNB-75 CNS) was greater than 100 µM, the GI50 (NCI/ADR-RES ovarian) was greater than 100 µM and the TGI (NCI/ADR-RES ovarian) was greater than 100 µM. The GI50 (DMS 114 small cell lung) was greater than 100 µM, the TGI (DMS 114 small cell lung) was greater than 100 µM and the GI50 (ACHN renal) was greater than 100 µM. For the same compound, the TGI (ACHN renal) was greater than 100 µM, the GI50 (NCI-H522 lung) was greater than 100 µM and the TGI (NCI-H522 lung) was greater than 100 µM. The GI50 (MOLT-4 leukemia) was greater than 100 µM and the TGI (MOLT-4 leukemia) was greater than 100 µM.
